# Laboratory results published in US10632119B2, “Fused bicyclic 2,4-diaminopyrimidine derivative as a dual ALK and FAK inhibitor” (priority 2012, dated 2020).
# [1] = female, Sprague-Dawley, rat, in vivo, 30 mg/kg/day, 4 weeks
structure (smiles),measurement,setting,value
"CNC(=O)c1ccccc1Nc1nc(Nc2ccc3c(c2OC)CCC[C@H](N2CCN(CCO)CC2)C3)ncc1Cl [CEP-37440, 2-[[5-chloro-2-[[(6S)-6-[4-(2-hydroxyethyl)piperazin-1-yl]-1-methoxy-6,7,8,9-tetrahydro-5H-benzo[7]annulen-2-yl]amino]pyrimidin-4-yl]amino]-N-methyl-benzamide]",unscheduled deaths,"1, 3, 10, 30 mg/kg/day, dosing phase",None of the unscheduled deaths were attributed to the drug
same,incidence of chronic inflammation and/or fibrosis of serosal surface of heart and lung,"female, Sprague-Dawley, rat, in vivo, 30 mg/kg/day",2/5
same,incidence of chronic inflammation and/or fibrosis of heart and lung surface,[1],5/10
same,"incidence of chronic inflammation in the thoracic cavity, total at scheduled sacrifices",[1],7/15
same,incidence of chronic to chronic-active inflammation in connective tissue surrounding the thymus,[1],4/10
